From patent US20090137572A1, “2-substituted-4-heteroaryl-pyrimidines useful for the treatment of proliferative disorders” (priority 2004, published 2009)

The chains behind the UniProt entries cited, without tags or fusion partners. Where a name states a change or a piece, a line headed by the entry shows the natural chain unless it says otherwise. Residues count along the entry.
UniProt P36888, 27-993, species assumed: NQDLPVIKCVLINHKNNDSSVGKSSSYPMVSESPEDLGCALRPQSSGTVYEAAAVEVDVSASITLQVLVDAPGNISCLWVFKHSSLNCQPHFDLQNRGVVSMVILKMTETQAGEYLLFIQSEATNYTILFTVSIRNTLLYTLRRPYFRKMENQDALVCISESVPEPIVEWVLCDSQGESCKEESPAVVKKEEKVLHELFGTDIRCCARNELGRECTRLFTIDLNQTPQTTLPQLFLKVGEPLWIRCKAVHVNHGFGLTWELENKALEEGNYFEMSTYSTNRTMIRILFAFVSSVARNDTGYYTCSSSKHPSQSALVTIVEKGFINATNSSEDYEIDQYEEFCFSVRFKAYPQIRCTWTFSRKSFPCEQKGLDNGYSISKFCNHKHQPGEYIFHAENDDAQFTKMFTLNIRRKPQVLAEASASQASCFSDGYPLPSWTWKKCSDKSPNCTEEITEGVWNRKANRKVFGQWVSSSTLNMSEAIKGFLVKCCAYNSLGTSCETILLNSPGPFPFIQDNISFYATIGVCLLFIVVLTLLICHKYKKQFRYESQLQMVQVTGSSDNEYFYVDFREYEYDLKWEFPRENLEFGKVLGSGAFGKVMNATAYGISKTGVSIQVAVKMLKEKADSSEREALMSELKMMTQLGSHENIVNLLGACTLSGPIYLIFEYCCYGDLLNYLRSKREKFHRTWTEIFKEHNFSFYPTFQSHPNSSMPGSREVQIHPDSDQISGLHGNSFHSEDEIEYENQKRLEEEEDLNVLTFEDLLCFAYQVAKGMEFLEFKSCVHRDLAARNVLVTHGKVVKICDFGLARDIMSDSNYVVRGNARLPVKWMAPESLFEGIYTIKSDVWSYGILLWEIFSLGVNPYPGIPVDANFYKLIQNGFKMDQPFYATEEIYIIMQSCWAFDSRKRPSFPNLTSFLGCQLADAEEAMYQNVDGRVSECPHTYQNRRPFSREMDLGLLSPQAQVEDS
UniProt P11802: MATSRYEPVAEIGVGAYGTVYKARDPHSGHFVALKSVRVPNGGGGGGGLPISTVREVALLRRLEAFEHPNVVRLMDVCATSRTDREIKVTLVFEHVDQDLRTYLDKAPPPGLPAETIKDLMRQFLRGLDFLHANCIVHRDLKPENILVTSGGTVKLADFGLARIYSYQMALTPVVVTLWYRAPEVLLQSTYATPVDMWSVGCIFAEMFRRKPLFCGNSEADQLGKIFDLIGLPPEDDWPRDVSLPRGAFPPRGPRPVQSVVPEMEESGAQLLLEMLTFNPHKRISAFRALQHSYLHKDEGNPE
UniProt P50613: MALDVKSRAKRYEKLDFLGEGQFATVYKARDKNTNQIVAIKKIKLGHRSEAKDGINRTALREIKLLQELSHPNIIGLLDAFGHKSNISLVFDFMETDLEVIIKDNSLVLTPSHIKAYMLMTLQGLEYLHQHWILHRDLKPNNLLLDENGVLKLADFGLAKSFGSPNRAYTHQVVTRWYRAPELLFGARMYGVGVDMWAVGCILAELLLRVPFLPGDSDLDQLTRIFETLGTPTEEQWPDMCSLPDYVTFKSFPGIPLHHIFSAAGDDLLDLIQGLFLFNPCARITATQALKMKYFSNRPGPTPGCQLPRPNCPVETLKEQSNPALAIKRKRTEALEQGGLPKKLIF
UniProt P06493, whole entry: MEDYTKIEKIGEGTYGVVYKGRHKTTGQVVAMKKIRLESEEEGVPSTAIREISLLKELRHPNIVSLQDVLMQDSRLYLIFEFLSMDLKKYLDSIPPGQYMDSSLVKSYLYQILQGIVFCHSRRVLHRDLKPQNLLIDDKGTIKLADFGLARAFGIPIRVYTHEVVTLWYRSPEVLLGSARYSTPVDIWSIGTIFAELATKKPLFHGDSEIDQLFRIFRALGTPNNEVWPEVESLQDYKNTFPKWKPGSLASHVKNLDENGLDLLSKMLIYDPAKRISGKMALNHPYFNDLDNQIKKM
UniProt P49841, whole entry, species assumed: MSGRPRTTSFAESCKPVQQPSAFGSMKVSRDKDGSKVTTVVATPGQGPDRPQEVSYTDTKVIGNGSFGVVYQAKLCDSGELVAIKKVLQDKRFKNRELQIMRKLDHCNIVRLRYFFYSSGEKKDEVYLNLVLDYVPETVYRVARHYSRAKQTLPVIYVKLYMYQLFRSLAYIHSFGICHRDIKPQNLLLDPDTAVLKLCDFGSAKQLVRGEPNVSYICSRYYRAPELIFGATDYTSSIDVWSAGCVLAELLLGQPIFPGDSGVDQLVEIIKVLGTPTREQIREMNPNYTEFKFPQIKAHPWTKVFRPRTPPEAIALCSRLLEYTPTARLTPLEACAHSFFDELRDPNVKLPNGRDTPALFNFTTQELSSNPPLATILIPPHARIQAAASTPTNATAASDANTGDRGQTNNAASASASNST

Experiments:
Type in all cases: biochemical
CDK2-cycline E = CDK2-cycline E (Homo sapiens, UniProt P24941); test: Kinase assay (radioactive phosphate incorporation), CDK2-cyclin E; settings: read-out: Kinase Inhibition pIC50 CDK2-cycline E (converted)
Description: (§1) Kinase assays. The compounds of the invention above were investigated for their ability to inhibit the enzymatic activity of various protein kinases (Table 2). This was achieved by measurement of incorporation of radioactive phosphate from ATP into appropriate polypeptide substrates. Recombinant protein kinases and kinase complexes were produced or obtained commercially. Assays were performed using 96-well plates and appropriate assay buffers (typically 25 mM β-glycerophosphate, 20 mM MOPS, 5 mM EGTA, 1 mM DTT, 1 mM […], pH 7.4), into which were added 2-4 μg of active enzyme with appropriate substrates. The reactions were initiated by addition of Mg/ATP mix (15 mM MgCl2+100 μM ATP with 30-50 kBq per well of [γ-^32P]-ATP) and mixtures incubated as required at 30° C. Reactions were stopped on ice, followed by filtration through p81 filterplates or GF/C filterplates (Whatman Polyfiltronics, Kent, UK). After washing 3 times with 75 mM aq orthophosphoric acid, plates were dried, scintillant added and incorporated radioactivity measured in a scintillation counter (TopCount, Packard Instruments, Pangbourne, Berks, UK). Compounds for kinase assay were made up as 10 mM stocks in DMSO and diluted into 10% DMSO in assay buffer.

CDK2-cyclin A = CDK2-cyclin A (Homo sapiens, UniProt P24941); test: Kinase assay (radioactive phosphate incorporation), CDK2-cyclin A; settings: read-out: Kinase Inhibition pIC50 CDK2-cyclin A (converted)
Description: as §1

[1] = biological target: T1, protein kinases (panel of Table 4) (Homo sapiens, UniProt P24941); test: Kinase selectivity profile, kinase inhibition IC50 (Table 4), ATP 100 μM
T1 construct: other: kinase CDK2A; ATP 100 μM; other: kinase CDK2E
Description: For the assays shown in Table 3, the kinases were assayed at the following ATP concentrations: SAPK4, PKBΔph, GSK3b, SAPK3, CK2, MKK1, PIM2, IKKB, ERK8, and PRK2 at 5 μM; JNK, PRAK, ROCK-II, SAPK2b, CDK2, CHK1, MSK1, CSK, P70S6K, PKA, CK1, MAPKAP-K2, SGK, PKCa, PDK1, NEK 7, and MAPKAP-K3 at 20 μM; SAPK2a, LCK, AMPK, MAPK2, DYRK1a, MAPKAP-K1a, NEK-6, NEK2a, PBK, CAMK-1, SRPK-1, JNK3, MNK2, RSK2, MNK1, PKBB, and SmMLCK at 50 μM. For the assays in Table 4 the ATP concentration was 100 μM throughout.

[2] = biological target: Flt3 (FMS-like tyrosine kinase-3) (Homo sapiens, UniProt P36888); test: Kinase assay (radioactive phosphate incorporation), Flt3; settings: pIC50 is -log(IC50, M), read-out: Kinase Inhibition pIC50 Flt3 (converted)
Description: as §1

CDK4-cyclin D1 = CDK4-cyclin D1 (Homo sapiens, UniProt P11802); test: Kinase assay (radioactive phosphate incorporation), CDK4-cyclin D1; settings: read-out: Kinase Inhibition pIC50 CDK4-cyclin D1 (converted)
Description: as §1

CDK7/cyclin H = CDK7/cyclin H (Homo sapiens, UniProt P50613); test: CDK 7 assay (CTD peptide substrate); settings: read-out: Kinase Inhibition pIC50 CDK7-cyclin H (converted)
Description: as §1, with “Compounds for kinase assay were made up as 10 mM stocks in DMSO and diluted into 10% DMSO in assay buffer.” left out
CDK 7 and 9 assays. […] Microscint 40 scintillation liquid (50 μL) was added to each well, and the amount of ^32P incorporation for each sample was measured using a Packard Topcount microplate scintillation counter.

CDK1-cyclin B = CDK1-cyclin B (Homo sapiens, UniProt P06493); test: Kinase assay (radioactive phosphate incorporation), CDK1-cyclin B; settings: read-out: Kinase Inhibition pIC50 CDK1-cyclin B (converted)
Description: as §1

GSK3b = GSK3b (Homo sapiens, UniProt P49841); test: Kinase assay (radioactive phosphate incorporation), GSK-3b; settings: read-out: Kinase Inhibition pIC50 GSK-3b (converted)
Description: as §1

Row | SMILES | IC50 (CDK2-cycline E) [nM] | IC50 (CDK2-cyclin A) [nM] | also measured
1 | CCNc1nc(C)c(-c2ccnc(Nc3ccc(CNC(C)=O)cc3)n2)s1 [Compound 13, N-{4-[4-(2-Ethylamino-4-methyl-thiazol-5-yl)-pyrimidin-2-ylamino]-benzyl}-acetamide] | 39.8 | – | –
2 | CNc1nc(C)c(-c2ccnc(Nc3cccc(S(N)(=O)=O)c3)n2)s1 [Compound 19, 3-[4-(4-Methyl-2-methylamino-thiazol-5-yl)-pyrimidin-2-ylamino]-benzenesulfonamide] | 5.01 | 158 | IC50 ([1]; kinase CDK2A, read-out: Kinase inhibition IC50, CDK2A): 160 nM; IC50 ([1]; kinase CDK2E, read-out: Kinase inhibition IC50, CDK2E): 5 nM
3 | CC(=O)N1CCN(c2ccc(Nc3nccc(-c4sc(N)nc4C)n3)cc2)CC1 [Compound 57, 1-(4-{4-[4-(2-Amino-4-methyl-thiazol-5-yl)-pyrimidin-2-ylamino]-phenyl}-piperazin-1-yl)-ethanone] | 12600 | – | IC50 (GSK3b): 12600 nM

The next lines start with results.

Row | IC50 (CDK2-cycline E) [nM] | IC50 (CDK2-cyclin A) [nM] | SMILES | also measured
4 | 501 | 1260 | CNc1nc(C)c(-c2ccnc(Nc3cc(OC)c(OC)c(OC)c3)n2)s1 [Compound 23, [4-(4-Methyl-2-methylamino-thiazol-5-yl)-pyrimidin-2-yl]-(3,4,5-trimethoxy-phenyl)-amine] | IC50 [2]: 12.6 nM
5 | 501 | 1260 | CCNc1nc(C)c(-c2ccnc(Nc3cc(OC)c(OC)c(OC)c3)n2)s1 [Compound 24, [4-(2-Ethylamino-4-methyl-thiazol-5-yl)-pyrimidin-2-yl]-(3,4,5-trimethoxy-phenyl)-amine] | IC50 (CDK4-cyclin D1): 1260 nM; IC50 (CDK7/cyclin H): 501 nM
6 | 1000 | 3980 | COc1cc(Nc2nccc(-c3sc(C)nc3C)n2)cc(OC)c1OC [Compound 25, [4-(2,4-Dimethyl-thiazol-5-yl)-pyrimidin-2-yl]-(3,4,5-trimethoxy-phenyl)-amine] | IC50 (CDK1-cyclin B): 3980 nM

Read-outs that look alike come from different tables or passages of the source.
